The values below are quoted from earlier work in US20160194683A1, “Gas Biosensors” (priority 2013, published 2016).

Chains of the proteins cited; added tags and fusions are not shown. Lines headed by an entry give the natural chain unless they say otherwise; changes in a name come on top.
UniProt P06134: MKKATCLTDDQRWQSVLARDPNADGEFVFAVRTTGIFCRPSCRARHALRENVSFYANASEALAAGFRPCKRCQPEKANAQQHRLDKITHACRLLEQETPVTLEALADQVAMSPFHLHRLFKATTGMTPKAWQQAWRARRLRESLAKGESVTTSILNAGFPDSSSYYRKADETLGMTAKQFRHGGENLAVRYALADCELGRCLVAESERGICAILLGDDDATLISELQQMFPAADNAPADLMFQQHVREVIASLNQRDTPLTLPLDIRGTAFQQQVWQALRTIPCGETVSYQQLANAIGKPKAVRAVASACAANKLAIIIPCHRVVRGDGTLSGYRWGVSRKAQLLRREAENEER
UniProt P20047: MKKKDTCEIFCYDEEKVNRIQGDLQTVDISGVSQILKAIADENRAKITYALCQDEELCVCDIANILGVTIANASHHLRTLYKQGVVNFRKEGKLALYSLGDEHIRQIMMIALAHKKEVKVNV
UniProt P0ACQ4: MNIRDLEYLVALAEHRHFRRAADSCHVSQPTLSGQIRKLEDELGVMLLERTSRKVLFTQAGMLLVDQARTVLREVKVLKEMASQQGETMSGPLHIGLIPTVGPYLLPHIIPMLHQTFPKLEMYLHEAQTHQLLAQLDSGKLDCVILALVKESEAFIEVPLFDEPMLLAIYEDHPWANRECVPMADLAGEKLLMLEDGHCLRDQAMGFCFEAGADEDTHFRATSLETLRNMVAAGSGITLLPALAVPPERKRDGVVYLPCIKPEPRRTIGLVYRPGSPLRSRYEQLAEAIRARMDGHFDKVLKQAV

The target in one series is Ada of E. coli (Escherichia coli, UniProt P06134). Particulars: host E. coli; alkAp-luxCDABE; DNA-alkylating agents; cited from earlier work.
The subject of a further series is RecA-LexA of E. coli. The note with it: host E. coli; cdap-gfp; cited from earlier work.
Series [1] relates to Pptcal (CO2 responsive promoter of the chloroplastic carbonic anhydrase gene). The note with it: P. tricornutum transformants; cited from earlier work.
In series [2] the target is CadC of Staphylococcus aureus (Staphylococcus aureus, UniProt P20047). The note with it: host Bacillus subtilis; cadCp-lucFF; cited from earlier work.
The target in another series is OxyR of E. coli (Escherichia coli, UniProt P0ACQ4). The note with it: host E. coli; katGp-luxCDABE; intracellular production of oxygen radicals; cited from earlier work.
For the next series, the system named is MerR of E. coli. The note with it: host E. coli; merTp-luxCDABE; cited from earlier work.

`CN(N=O)C(=N)N[N+](=O)[O-]`: the Detection sensitivity is 70 nM N-methyl- at Ada of E. coli and 5 nM N-methyl- with RecA-LexA of E. coli. Consider CO2, for which the “GUS expression in air (about 0.04% CO2) relative to cells grown in 5% CO2” value in series [1] is given as “about 10 fold”. Consider Cd^2+, for which the Detection sensitivity in series [2] is 3 nM.

As for H2O2, the Detection sensitivity at OxyR of E. coli is 3 μM H2O2,. Hg^2+: the Detection sensitivity in the series with MerR of E. coli is on record as 1 nM.
